Results from PMC2229169 (The Journal of General Physiology, 1993).

Sequences of proteins named here, by UniProt entry; tags and fusion partners are left off. A change or cut given only in a name is not applied to a line headed by its entry.
UniProt Q03719: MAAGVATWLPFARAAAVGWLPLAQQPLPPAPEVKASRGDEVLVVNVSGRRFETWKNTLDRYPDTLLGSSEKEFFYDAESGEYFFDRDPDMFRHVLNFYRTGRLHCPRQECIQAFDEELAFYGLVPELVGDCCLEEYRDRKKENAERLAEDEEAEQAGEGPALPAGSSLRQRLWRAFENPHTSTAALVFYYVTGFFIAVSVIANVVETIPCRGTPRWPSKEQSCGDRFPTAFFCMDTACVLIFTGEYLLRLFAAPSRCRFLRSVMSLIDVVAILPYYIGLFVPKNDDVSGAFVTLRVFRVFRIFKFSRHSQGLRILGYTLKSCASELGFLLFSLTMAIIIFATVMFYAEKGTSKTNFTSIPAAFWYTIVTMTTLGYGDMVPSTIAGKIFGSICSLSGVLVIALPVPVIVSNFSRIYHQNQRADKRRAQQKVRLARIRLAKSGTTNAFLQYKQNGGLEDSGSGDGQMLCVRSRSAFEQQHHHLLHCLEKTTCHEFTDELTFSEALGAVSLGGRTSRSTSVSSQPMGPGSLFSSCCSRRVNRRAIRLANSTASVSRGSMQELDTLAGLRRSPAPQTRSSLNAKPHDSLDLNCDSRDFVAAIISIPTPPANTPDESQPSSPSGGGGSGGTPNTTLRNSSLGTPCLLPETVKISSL

Target: mShal1 (mKv4.1) (Mus musculus, UniProt Q03719)
Assay: cell-based

Structure (SMILES): Nc1ccncc1 [4-AP, 4-aminopyridine]
- IC50: 28.4 ± 1.6 mM
